Compounds with a hit are over-represented: about 2.3% of the library has one in this group of screens.
MC4R barr agon: agonists of human melanocortin 4 receptor (MC4R) beta-arrestin. P32245. U2OS MC4R beta-arrestin complementation, luminescence; percent of melanotan II response, DMSO zero. activation, % at 8.9 µM. 360,000 tested, 0.98% active. AID 540308;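 active = activation above a per-plate cutoff, the mean activation of sample wells on that plate plus 3 SD, cut at about 8% in these data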
Yeast UUG start-1: alters start codon recognition fidelity in yeast; AID 602363; activity score, % at 18.7 µM; 350,000 tested, 0.13% active; S. cerevisiae UUG-firefly luciferase reporter, luminescence/redox ratio;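 active means replicate mean at a twofold rise or more, about +100% in these data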;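 further: firefly luciferase made from a UUG start codon reports start codon fidelity; reporter light over untreated wells divided by growth signal over untreated wells; some hits fall short of that in this replicate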
ASAP1 inh: ASAP1 ArfGAP inhibition; inhibition, % at 16.5 µM; Q9ULH1; 360,000 tested, 0.19% active; ASAP1-stimulated ARF1 GTP hydrolysis, GDP FP detection; AID 624377; in the data active = inhibition above about 25%;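 also: 0% = vehicle with enzyme and substrate and 100% = no enzyme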
MC4R antag cAMP: antagonists of human melanocortin 4 receptor (MC4R); 360,000 tested, 0.48% active; P32245; inhibition, % at 6.5 µM; AID 540295; MC4R-expressing cells, MTII-stimulated cAMP, LANCE TR-FRET;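 active = inhibition above its plate's cutoff, the mean of tested wells on that plate plus 3 SD, cut at about 29% in these data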;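 also: 0% = Melanotan II alone and 100% = Melanotan II plus saturating MCL0020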
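Material: human MC4R-expressing U2OS cells. Probe or stimulus: Melanotan II challenge. Dosing: 6.5 µM single dose. Times: 30-min compound, 1-h challenge, 1-h detection, room temperature. Technique: TR-FRET with Eu-cAMP and labeled anti-cAMP, 671 nm. Replication: singlicate.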
ARFGAP1 inh: inhibits rat ARF GTPase activating protein 1; Q62848; Arfgap1-stimulated ARF1 GTP hydrolysis, GDP FP detection; 360,000 tested, 0.26% active; inhibition, % at 16.5 µM; AID 651572;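 active = inhibition above a per-plate limit, mean inhibition of low control wells plus 3 SD, cut at about 25% in these data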;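 also: 0% = DMSO wells with enzyme and 100% = wells lacking Arfgap1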
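System: truncated rat Arfgap1 GAP domain / Benchmarks: high control wells lacking Arfgap1, low control full reaction with DMSO / Times: compound-enzyme preincubation 20 min, reaction 120 min, detection 60 min, 25 °C / Repeats: one replicate per compound / Also added: human ARF1(Δ1-17)-GTP substrate / Measured by: Tracer-displacement fluorescence polarization with EDTA stop, 620/688 nm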
CendR NRP1 mod: alters CendR peptide binding to human NRP-1. FAM-RPARPAR peptide binding to NRP-1, fluorescence polarization. inhibition, % at 25 µM. 360,000 tested, 0.85% active;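 active = inhibition or corrected inhibition above about 18%, plus a signal ratio from 0.5 to 1.5, limit read from the data, passing the limit was not always enough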
Yeast UUG start-2: yeast start codon fidelity modulation; S. cerevisiae UUG-start firefly luciferase, luminescence, 4 h; 100% means double the DMSO signal; AID 652061; 540 tested, under 10 active; shares compounds with Yeast UUG start-1; activation, % at 38 µM;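 active = signal increase whose fitted curve reaches an absolute level of 40 at a concentration under 10 µM; inactive = activity opposite to the expected increase, or the rest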
The depositor's hits bear a star; i = inactive; nt = no result.

Under each structure: MC4R barr agon | Yeast UUG start-1 | ASAP1 inh | MC4R antag cAMP | ARFGAP1 inh | CendR NRP1 mod | Yeast UUG start-2
- COc1ccc(CCNS(=O)(=O)c2cccc(C)c2)cc1OC
 : -1 | -7 | -4 | 6 | 10 | -13 | 8
- COc1ccc(CCNS(=O)(=O)c2ccc3c(c2)CCCC3)cc1OC
 : 0 | -5 | -11 | 4 | -12 | 6 | nt
- COc1ccc(CCNS(=O)(=O)c2cccc(S(=O)(=O)N3CCCC3)c2)cc1OC
 : -1 | 14 | -18 | 8 | -1 | 9 | nt
- COc1ccc(S(=O)(=O)NCCc2ccccc2)cc1
 : 1 | 10 | 0 | 5 | -10 | 14 | 0
- COc1ccc(CCNS(=O)(=O)c2ccc(Br)cc2)cc1
 : 2 | -11 | 13 | -7 | -1 | -32 | nt
- COc1ccc(CCNS(=O)(=O)c2ccc3c(c2)OCCO3)cc1OC
 : 1 | nt | -5 | 11 | -1 | 3 | -3
- COc1ccc(CCNS(=O)(=O)c2cnc(Cl)c(Br)c2)cc1OC
 : 0 | -11 | -13 | 27 | 1 | -1 | nt
- COc1ccc(CCNS(=O)(=O)c2cccc(F)c2)cc1OC
 : 3 | 0 | 14 | 0 | -14 | -4 | 1
- C[C@@H]1CN([C@@H](C)CO)C(=O)c2cccc(NC(=O)Nc3ccc4c(c3)OCO4)c2O[C@@H]1CN(C)S(=O)(=O)c1cccs1
 : nt | 0 | nt | nt | nt | nt | nt
- COc1ccc(Nc2nc3ccccc3n2C)cc1
 : -1 | 0 | 17 | 1 | 6 | -6 | -13
- C[C@@H]1CN([C@H](C)CO)C(=O)c2cccc(NC(=O)Nc3cccc4ccccc34)c2O[C@@H]1CN(C)S(=O)(=O)c1cn(C)cn1
 : nt | 4 | nt | nt | nt | nt | nt
- c1cn2c(NC3CCCCC3)c(-c3ccc(SC4CCCCC4)cc3)nc2cn1
 : -2 | -18 | -9 | 4 | 11 | -40 | nt
- CCN(CC)c1ccc(-c2nc3cnccn3c2NC2CCCC2)cc1
 : 1 | 181* | -13 | 0 | 0 | -28 | 3
- OC(C#CCN1CCCC1)(c1ccccc1)c1cccc(F)c1 (stereo unspecified)
 : -1 | nt | 0 | 3 | 3 | 0 | 12
- CC(O)(C#CCN1CCCCC1)c1ccccc1 (stereo unspecified)
 : 0 | -22 | 6 | -6 | 12 | 3 | nt
- CC(O)(C#CCN1CCCC1)c1ccccc1 (stereo unspecified)
 : -1 | 5 | 8 | 12 | 12 | -2 | -5
- CC(C)NC(=O)Nc1ccc2c(c1)C(=O)N([C@@H](C)CO)C[C@H](C)[C@@H](CN(C)Cc1ccc3c(c1)OCO3)OCCCC[C@H](C)O2
 : nt | 1 | nt | nt | nt | nt | nt
- O=C1COc2ccccc2N1Cc1ccc(Cl)cc1
 : -1 | 167* | 8 | 6 | 3 | -18 | 4
- Nc1c(-c2ccccc2)nc(Cl)nc1-c1ccccc1
 : -2 | 133* | 2 | 0 | 4 | -4 | 1
- Cc1cc[n+](C2=C([O-])c3ccccc3C(=O)/C2=N\S(=O)(=O)c2cccs2)cc1C
 : -1 | 446* | -6 | -11 | -6 | 8 | 0

Part of the list above, as labelled records.
COc1ccc(CCNS(=O)(=O)c2ccc3c(c2)OCCO3)cc1OC
  MC4R barr agon: 1
  Yeast UUG start-1: nt
  ASAP1 inh: -5
  MC4R antag cAMP: 11
  ARFGAP1 inh: -1
  CendR NRP1 mod: 3
  Yeast UUG start-2: -3

C[C@@H]1CN([C@@H](C)CO)C(=O)c2cccc(NC(=O)Nc3ccc4c(c3)OCO4)c2O[C@@H]1CN(C)S(=O)(=O)c1cccs1
  MC4R barr agon: nt
  Yeast UUG start-1: 0
  ASAP1 inh: nt
  MC4R antag cAMP: nt
  ARFGAP1 inh: nt
  CendR NRP1 mod: nt
  Yeast UUG start-2: nt

Later entries:
Under each structure: MC4R barr agon | Yeast UUG start-1 | ASAP1 inh | MC4R antag cAMP | ARFGAP1 inh | CendR NRP1 mod | Yeast UUG start-2
- Cc1cc(C)c[n+](C2=C([O-])c3ccccc3C(=O)/C2=N\S(=O)(=O)c2cccs2)c1
 : -2 | nt | 0 | -13 | -5 | 11 | nt
- COc1ccc(OCc2nnc(SCC(=O)NC3CC3)n2C)cc1
 : 2 | -13 | 2 | -1 | 4 | 9 | nt
- COc1ccc(C(=O)NCc2nnc(SCC(=O)NC3CCCCC3)n2C)cc1
 : 0 | 349* | 6 | -2 | 0 | 5 | -6
- O=C(NCC[C@@H]1CC[C@@H](NC(=O)C2CCCC2)[C@H](CO)O1)Nc1ccc(Cl)cc1
 : nt | -2 | nt | nt | nt | nt | nt
- COc1ccc([C@@H](OC(=O)Nc2ccc(SC)cc2)[C@@H](CCO)OC)cc1O
 : nt | 151* | nt | nt | nt | nt | i
- COC(=O)c1c2oc(c1C(=O)OC)C(=O)N[C@@H](Cc1ccccc1)Cn1cc(nn1)CNC(=O)[C@@H](Cc1ccccc1)NC(=O)N[C@@H](CO)CC2
 : nt | 116* | nt | nt | nt | nt | i
- O=C(Nc1ccc([N+](=O)[O-])cc1)C(=O)Nc1cccc(C(=O)O)c1
 : -3 | 171* | -10 | 11 | -13 | -5 | -56
- CN(C)c1ccc(/C=C/c2ccc3ccccc3[n+]2C)cc1
 : -6 | 127* | 10 | -53 | -2 | -43 | 11
- CNC[C@H]1OCCCC[C@H](C)Oc2ccc(NS(=O)(=O)c3ccc(F)cc3)cc2C(=O)N([C@@H](C)CO)C[C@H]1C
 : nt | 6 | nt | nt | nt | nt | nt
- C[C@H](CO)N1C[C@H](C)[C@H](CN(C)C(=O)CN(C)C)Oc2cc(C#CCC3CCCC3)ccc2S1(=O)=O
 : nt | 107* | nt | nt | nt | nt | i
- C[C@@H]1CN([C@H](C)CO)S(=O)(=O)c2ccc(C#CCC3CCCC3)cc2O[C@@H]1CN(C)C(=O)CN(C)C
 : nt | 129* | nt | nt | nt | nt | i
- Cc1noc(C)c1NC(=O)N(C)C[C@H]1Oc2ccc(NC(=O)C3CC3)cc2CC(=O)N([C@H](C)CO)C[C@@H]1C
 : nt | -3 | nt | nt | nt | nt | nt
- CCC1=C(OC(=O)c2ccccc2)C(C)(C)C(c2ccccc2)OC1=O (stereo unspecified)
 : 3 | 105* | 10 | 11 | -3 | 4 | 9
- CCCNC(=O)C[C@@H]1CC[C@@H]2[C@H](COC[C@H](O)CN2C(=O)c2ccccn2)O1
 : nt | -16 | nt | nt | nt | nt | nt
- CC1CCN(CCCNC(=O)c2cc3c(Cl)nc4ccccc4c3s2)CC1
 : 0 | 8 | -7 | 1 | 9 | 7 | nt
- O=C(NCCCN1CCCC1)c1cc2c(Cl)nc3ccccc3c2s1
 : 0 | 486* | -14 | -8 | -8 | 6 | 5
- CC1(C)CC(=O)C2=C(C1)NC(=S)C(C#N)C21CCCCC1 (stereo unspecified)
 : 1 | 110* | -3 | 18 | 4 | 12 | 13
- CC1(C)CC(=O)C2=C(C1)NC(SCC(=O)Nc1ccccc1)=C(C#N)C21CCCCC1
 : 2 | -3 | 6 | 3 | 11 | 6 | nt
- COc1ccc(CNC(=O)Cc2nn(C)c(=O)c3ccccc23)cc1
 : 0 | nt | 14 | -4 | 3 | 9 | nt
- Cc1nn(CC(=O)N2CCN(c3ccccc3)CC2)c(=O)c2ccccc12
 : 0 | -24 | -12 | 4 | -3 | -3 | 1

Part of the list above, reduced to ARFGAP1 inh, Yeast UUG start-2 and MC4R antag cAMP.
structure,ARFGAP1 inh,Yeast UUG start-2,MC4R antag cAMP
COC(=O)c1c2oc(c1C(=O)OC)C(=O)N[C@@H](Cc1ccccc1)Cn1cc(nn1)CNC(=O)[C@@H](Cc1ccccc1)NC(=O)N[C@@H](CO)CC2,nt,i,nt
O=C(Nc1ccc([N+](=O)[O-])cc1)C(=O)Nc1cccc(C(=O)O)c1,-13,-56,11
CN(C)c1ccc(/C=C/c2ccc3ccccc3[n+]2C)cc1,-2,11,-53

Later entries
Under each structure: MC4R barr agon | Yeast UUG start-1 | ASAP1 inh | MC4R antag cAMP | ARFGAP1 inh | CendR NRP1 mod | Yeast UUG start-2
- COc1ccc(OC)c(NC(=O)Cn2cc(C(=O)c3ccco3)c3ccccc32)c1
 : -2 | 134* | -1 | 9 | 18 | -8 | 13
- COc1ccc(N2CCN(C(=O)Cc3nn(C)c(=O)c4ccccc34)CC2)cc1
 : -1 | -20 | 0 | 2 | 5 | -2 | 10
- Cn1nc(CC(=O)Nc2cccc3ncccc23)c2ccccc2c1=O
 : -1 | -13 | 11 | 12 | 16 | -3 | -4
- CC(=O)N(C)C[C@H]1Oc2ncc(-c3ccc(C)cc3)cc2C(=O)N([C@@H](C)CO)C[C@H]1C
 : nt | -6 | nt | nt | nt | nt | nt
